# Cyclic peptide permeability, from CycPeptMPDB

Values of Kelly et al. 2021, doi:10.1021/jacs.0c06115, as listed in CycPeptMPDB.

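The data file gives no further conditions (lipid, pH, time, direction or concentration), and values from different papers need not be comparable. Other peptides of the study may be missing here. Peptides that the database sets to -10, its floor, are left out.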

PAMPA measures passive passage through an artificial lipid membrane. Values are log10 P with P in cm/s, so -5 is more permeable than -7.

The entry for CC(=O)N[C@@H]1C(=O)N2CCC[C@H]2C(=O)N(C)[C@H](CC(C)C)C(=O)N(C)[C@@H](CC(C)C)C(=O)N(C)[C@@H](CC(C)C)C(=O)N(C)[C@@H](CC(C)C)C(=O)N(C)[C@@H](C)C(=O)N[C@@H](CC(C)C)C(=O)N2CCC[C@@H]2C(=O)O[C@@H]1C lists PAMPA -5.31 (log10 cm/s). CC(=O)N1CCC[C@@H]1C(=O)N(C)[C@@H](CC(C)C)C(=O)N[C@@H]1C(=O)N[C@@H](CC(C)C)C(=O)N(C)[C@H](CC(C)C)C(=O)N(C)[C@H](CC(C)C)C(=O)N(C)[C@H](C)C(=O)N[C@@H](CC(C)C)C(=O)N2CCC[C@H]2C(=O)O[C@@H]1C has PAMPA -5.90 (log10 cm/s). The entry for CC(=O)N1CCC[C@@H]1C(=O)N(C)[C@@H](CC(C)C)C(=O)N[C@@H]1C(=O)N[C@@H](CC(C)C)C(=O)N(C)[C@@H](CC(C)C)C(=O)N[C@H](CC(C)C)C(=O)N[C@@H](C)C(=O)N[C@@H](CC(C)C)C(=O)N2CCC[C@@H]2C(=O)O[C@@H]1C lists PAMPA -5.23 (log10 cm/s). CC(=O)N1CCC[C@@H]1C(=O)N(C)[C@H](CC(C)C)C(=O)N[C@@H]1C(=O)N(C)[C@H](CC(C)C)C(=O)N(C)[C@H](CC(C)C)C(=O)N[C@H](CC(C)C)C(=O)N(C)[C@H](C)C(=O)N[C@H](CC(C)C)C(=O)N2CCC[C@@H]2C(=O)O[C@@H]1C has PAMPA -5.76 (log10 cm/s).

Listed for CC(=O)N1CCC[C@@H]1C(=O)N(C)[C@H](CC(C)C)C(=O)N[C@@H]1C(=O)N[C@@H](CC(C)C)C(=O)N(C)[C@@H](CC(C)C)C(=O)N(C)[C@H](CC(C)C)C(=O)N(C)[C@@H](C)C(=O)N[C@@H](CC(C)C)C(=O)N2CCC[C@@H]2C(=O)O[C@@H]1C: PAMPA -5.73 (log10 cm/s). Listed for CC(=O)N[C@@H]1C(=O)N2CCC[C@H]2C(=O)N(C)[C@H](CC(C)C)C(=O)N(C)[C@H](CC(C)C)C(=O)N[C@@H](CC(C)C)C(=O)N(C)[C@H](CC(C)C)C(=O)N[C@@H](C)C(=O)N[C@@H](CC(C)C)C(=O)N2CCC[C@@H]2C(=O)O[C@@H]1C: PAMPA -5.91 (log10 cm/s). CC(=O)N1CCC[C@@H]1C(=O)N(C)[C@H](CC(C)C)C(=O)N[C@@H]1C(=O)N[C@H](CC(C)C)C(=O)N(C)[C@H](CC(C)C)C(=O)N(C)[C@H](CC(C)C)C(=O)N[C@@H](C)C(=O)N[C@H](CC(C)C)C(=O)N2CCC[C@H]2C(=O)O[C@@H]1C has PAMPA -5.75 (log10 cm/s). Listed for CC(=O)N1CCC[C@H]1C(=O)N(C)[C@@H](CC(C)C)C(=O)N[C@@H]1C(=O)N[C@H](CC(C)C)C(=O)N[C@@H](CC(C)C)C(=O)N[C@H](CC(C)C)C(=O)N(C)[C@H](C)C(=O)N[C@H](CC(C)C)C(=O)N2CCC[C@@H]2C(=O)O[C@@H]1C: PAMPA -7.16 (log10 cm/s).

Listed for CC(=O)N1CCC[C@H]1C(=O)N(C)[C@@H](CC(C)C)C(=O)N[C@@H]1C(=O)N[C@H](CC(C)C)C(=O)N[C@H](CC(C)C)C(=O)N(C)[C@H](CC(C)C)C(=O)N(C)[C@@H](C)C(=O)N[C@@H](CC(C)C)C(=O)N2CCC[C@H]2C(=O)O[C@@H]1C: PAMPA -5.87 (log10 cm/s). CC(=O)N1CCC[C@H]1C(=O)N(C)[C@@H](CC(C)C)C(=O)N[C@@H]1C(=O)N[C@@H](CC(C)C)C(=O)N[C@H](CC(C)C)C(=O)N(C)[C@@H](CC(C)C)C(=O)N(C)[C@@H](C)C(=O)N[C@H](CC(C)C)C(=O)N2CCC[C@@H]2C(=O)O[C@@H]1C has PAMPA -5.72 (log10 cm/s). CC(=O)N1CCC[C@H]1C(=O)N[C@@H]1C(=O)N[C@H](CC(C)C)C(=O)N[C@@H](CC(C)C)C(=O)N[C@@H](CC(C)C)C(=O)N(C)[C@@H](CC(C)C)C(=O)N(C)[C@H](C)C(=O)N[C@@H](CC(C)C)C(=O)N2CCC[C@@H]2C(=O)O[C@@H]1C has PAMPA -5.82 (log10 cm/s). CC(=O)N1CCC[C@@H]1C(=O)N(C)[C@@H](CC(C)C)C(=O)N[C@@H]1C(=O)N(C)[C@H](CC(C)C)C(=O)N[C@@H](CC(C)C)C(=O)N(C)[C@@H](CC(C)C)C(=O)N[C@@H](C)C(=O)N[C@@H](CC(C)C)C(=O)N2CCC[C@H]2C(=O)O[C@@H]1C is reported with PAMPA -5.62 (log10 cm/s).

CC(=O)N1CCC[C@@H]1C(=O)N(C)[C@@H](CC(C)C)C(=O)N[C@@H]1C(=O)N[C@H](CC(C)C)C(=O)N(C)[C@@H](CC(C)C)C(=O)N[C@H](CC(C)C)C(=O)N(C)[C@H](C)C(=O)N[C@@H](CC(C)C)C(=O)N2CCC[C@H]2C(=O)O[C@@H]1C is reported with PAMPA -5.71 (log10 cm/s). CC(=O)N1CCC[C@@H]1C(=O)N(C)[C@H](CC(C)C)C(=O)N[C@@H]1C(=O)N(C)[C@@H](CC(C)C)C(=O)N[C@@H](CC(C)C)C(=O)N[C@@H](CC(C)C)C(=O)N[C@@H](C)C(=O)N[C@H](CC(C)C)C(=O)N2CCC[C@H]2C(=O)O[C@@H]1C is reported with PAMPA -7.35 (log10 cm/s). For CC(=O)N1CCC[C@H]1C(=O)N(C)[C@@H](CC(C)C)C(=O)N[C@@H]1C(=O)N[C@H](CC(C)C)C(=O)N(C)[C@@H](CC(C)C)C(=O)N(C)[C@@H](CC(C)C)C(=O)N[C@@H](C)C(=O)N[C@H](CC(C)C)C(=O)N2CCC[C@@H]2C(=O)O[C@@H]1C the data give PAMPA -6.11 (log10 cm/s). CC(=O)N1CCC[C@@H]1C(=O)N(C)[C@H](CC(C)C)C(=O)N[C@@H]1C(=O)N[C@H](CC(C)C)C(=O)N(C)[C@H](CC(C)C)C(=O)N(C)[C@@H](CC(C)C)C(=O)N(C)[C@@H](C)C(=O)N[C@H](CC(C)C)C(=O)N2CCC[C@@H]2C(=O)O[C@@H]1C is reported with PAMPA -5.16 (log10 cm/s).

CC(=O)N1CCC[C@H]1C(=O)N(C)[C@@H](CC(C)C)C(=O)N[C@@H]1C(=O)N[C@@H](CC(C)C)C(=O)N[C@@H](CC(C)C)C(=O)N(C)[C@@H](CC(C)C)C(=O)N[C@@H](C)C(=O)N[C@@H](CC(C)C)C(=O)N2CCC[C@H]2C(=O)O[C@@H]1C has PAMPA -6.07 (log10 cm/s). The entry for CC(=O)N1CCC[C@@H]1C(=O)N(C)[C@@H](CC(C)C)C(=O)N[C@@H]1C(=O)N(C)[C@@H](CC(C)C)C(=O)N[C@@H](CC(C)C)C(=O)N(C)[C@@H](CC(C)C)C(=O)N[C@@H](C)C(=O)N[C@H](CC(C)C)C(=O)N2CCC[C@@H]2C(=O)O[C@@H]1C lists PAMPA -6.43 (log10 cm/s).

Repeated from above, the 3 entries with the highest PAMPA:

For CC(=O)N1CCC[C@@H]1C(=O)N(C)[C@H](CC(C)C)C(=O)N[C@@H]1C(=O)N[C@H](CC(C)C)C(=O)N(C)[C@H](CC(C)C)C(=O)N(C)[C@@H](CC(C)C)C(=O)N(C)[C@@H](C)C(=O)N[C@H](CC(C)C)C(=O)N2CCC[C@@H]2C(=O)O[C@@H]1C the data give PAMPA -5.16 (log10 cm/s).
For CC(=O)N1CCC[C@@H]1C(=O)N(C)[C@@H](CC(C)C)C(=O)N[C@@H]1C(=O)N[C@@H](CC(C)C)C(=O)N(C)[C@@H](CC(C)C)C(=O)N[C@H](CC(C)C)C(=O)N[C@@H](C)C(=O)N[C@@H](CC(C)C)C(=O)N2CCC[C@@H]2C(=O)O[C@@H]1C the data give PAMPA -5.23 (log10 cm/s).
For CC(=O)N[C@@H]1C(=O)N2CCC[C@H]2C(=O)N(C)[C@H](CC(C)C)C(=O)N(C)[C@@H](CC(C)C)C(=O)N(C)[C@@H](CC(C)C)C(=O)N(C)[C@@H](CC(C)C)C(=O)N(C)[C@@H](C)C(=O)N[C@@H](CC(C)C)C(=O)N2CCC[C@@H]2C(=O)O[C@@H]1C the data give PAMPA -5.31 (log10 cm/s).